pIC50: −log10 of the molar value.
Experiments:
HLA-A*0201 (human) = experiment: 125I-probe peptide inhibition, purified HLA
HLA-A*0206 (human) = experiment: 125I-probe peptide inhibition, purified HLA

p53.129 (10-mer) (peptide) was tested, and the pIC50 (HLA-A*0201 (human)) was 5.88 and the pIC50 (HLA-A*0206 (human)) was 5.33.
